AlphaSeq binding of Ab-95 light chain variants to a spike HR2 peptide

Data: MIT Lincoln Laboratory AlphaSeq set, Engelhart et al. 2022, doi:10.1038/s41597-022-01779-4, as distributed in FLAb.

The target is the same throughout: PDVDLGDISGINAS, from the HR2 region of SARS-CoV-2 spike.

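Variants in AAYL52 differ from the parent at up to three CDR positions; double and triple changes were sampled at random. Affinity was read by AlphaSeq, a pooled yeast mating assay with surface-displayed partners. Pairs that bind mate more often; barcode pairs of the diploids are counted by sequencing. A regression on co-assayed BCL2-family reference pairs converts the normalised counts of each replicate to an apparent Kd. Each pool was mated in three replicate cultures.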

Parent scFv Ab-95: VH joined to VL by a (GGGGS)3 linker. Changes lie in the light chain CDRs alone.
VH: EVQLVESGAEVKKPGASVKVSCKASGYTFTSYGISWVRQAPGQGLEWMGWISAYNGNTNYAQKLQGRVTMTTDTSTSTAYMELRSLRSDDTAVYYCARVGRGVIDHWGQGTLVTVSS
VL: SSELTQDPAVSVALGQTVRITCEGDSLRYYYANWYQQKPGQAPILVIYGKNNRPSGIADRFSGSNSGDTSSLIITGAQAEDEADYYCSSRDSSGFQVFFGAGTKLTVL

Variants are written as CDR1, CDR2 and CDR3 of the light chain (limits as in the source). Parent: EGDSLRYYYAN, GKNNRPS, SSRDSSGFQVF. This list gathers variants with a substitution at Y31 (VL, numbered from residue 1). Each Kd is an estimate from the mating assay, the geometric mean of the replicates in which the pair was seen; lower is stronger. Where no diploid with the target was found in any replicate, the entry reads "no signal": below detection, most likely a poor binder, though not proof of it. Order: sorted from the lowest average up, undetected variants last.

| CDR-L1 | CDR-L2 | CDR-L3 | Kd | seen in |
|---|---|---|---|---|
| EGDSLRYYDAN | GKNNRPS | SSRDSSGFQVF | 2.2 nM | 3 of 3 |
| EGDSLRYYAAN | GKNNRPS | SSRDSSGFQVF | 14 nM | 3 of 3 |
| EGDSLRYYNAN | GINNKPS | SSRDSSGFQVF | 15 nM | 3 of 3 |
| QGDSLRYYEAN | GKNNRPS | SSRDSSGFQVM | 17 nM | 3 of 3 |
| EGDSLRYHNAN | GKNNRPS | SSRDSYGFQVF | 33 nM | 3 of 3 |
| EGDSLRYYTAN | GKNNRPS | SSRDPSGFQVF | 44 nM | 3 of 3 |
| EGDSLRYYHAN | GKNNRPS | SSRDSSGAQVF | 48 nM | 3 of 3 |
| EGDSLRWYNAN | GKNNRPS | SSRDSSDFQVF | 58 nM | 3 of 3 |
| EGDSLRYYHAN | GKNNRPS | SSRDCSFFQVF | 59 nM | 3 of 3 |
| EGDSLRYYGAN | GKHNRPS | SSRDSSGFQVF | 62 nM | 3 of 3 |
| EGNSLRYYTAN | GPNNRPS | SSRDSSGFQVF | 63 nM | 3 of 3 |
| EGDSLRYYRAN | GKNNRPS | SSRDSSGFQVC | 63 nM | 3 of 3 |
| EGDSLRYYQAN | GKNGRPS | SSPDSSGFQVF | 77 nM | 3 of 3 |
| EADSLRYYGAN | GKNNRPS | SSRSSSGFQVF | 100 nM | 3 of 3 |
| AGDSLRYYHPN | GKNNRPS | SSRDSSGFQVF | 100 nM | 3 of 3 |
| EGDSLRYYHAN | GKNWRPS | SSRDSSGFQVF | 140 nM | 3 of 3 |
| EQDSLRYYEAN | GKNNRPS | SCRDSSGFQVF | 150 nM | 3 of 3 |
| EGDSLRYYKAN | GCNNRPY | SSRDSSGFQVF | 160 nM | 3 of 3 |
| EQDSLRAYLAN | GKNNRPS | SSRDSSGFQVF | 160 nM | 3 of 3 |
| EGDSLRYYRAN | GKNNRPS | SSRDSSGFQVF | 200 nM | 3 of 3 |
| EGDSLRYYTAN | GKNNRPQ | SSRDSSGFQSF | 320 nM | 3 of 3 |
| EGDSLRYYMAN | GKNNRPS | SSRESSGFQSF | 380 nM | 3 of 3 |
| EGDSLEYPRAN | GKNNRPS | SSRDSSGFQVF | 390 nM | 3 of 3 |
| EGDSLRYYHAN | GKNCRPS | SSRDSSGFQVN | 450 nM | 2 of 3 |
| EGDSLRYYRAN | GKNNRPS | SSRDFSGFQVF | 480 nM | 3 of 3 |
| EGVSLRYDWAN | GKNNRPS | SSRDSSGFQVF | 500 nM | 3 of 3 |
| EGDSLRYYDAN | QKNNSPS | SSRDSSGFQVF | 690 nM | 3 of 3 |
| EGDSLRYYIAN | GKENRPS | SSRDGSGFQVF | 720 nM | 1 of 3 |
| EGDSIRYYAAN | GWNNRPS | SSRDSSGFQVF | 780 nM | 3 of 3 |
| EGDSLRYYDAN | GKNNRPS | SSRDSVGFQDF | 940 nM | 2 of 3 |
| EGDSLRYYKAN | GKANRPF | SSRDSSGFQVF | 990 nM | 3 of 3 |
| EGDSLRYYIAN | GKNNRPS | SVRDSSGFQVF | 1.1 µM | 3 of 3 |
| EGDSLRYRRAN | GKNNRPS | SSRDSSGFQVF | 1.1 µM | 3 of 3 |
| EGDSLRYYIAN | GHDNRPS | SSRDSSGFQVF | 1.1 µM | 3 of 3 |
| EGFSLRYYQAN | GKNNDPS | SSRDSSGFQVF | 1.1 µM | 2 of 3 |
| EGDSLRYYIAN | GKNNRPG | SSRDSSGFKVF | 1.2 µM | 3 of 3 |
| EGDSLRYYLAN | RKVNRPS | SSRDSSGFQVF | 1.3 µM | 1 of 3 |
| EGDSLVYYTAN | GKNNRPS | SSRASSGFQVF | 1.4 µM | 3 of 3 |
| EGGSLRYYAAN | GKNNRPS | SSRDSSGFQGF | 1.5 µM | 2 of 3 |
| EGDSLRYYMAN | GKKGRPS | SSRDSSGFQVF | 1.6 µM | 3 of 3 |
| ELDSLRYYQAN | GKNNRPS | SSRDSSGFQPF | 1.9 µM | 3 of 3 |
| EGDSLRPYVAN | GKNNRPS | SSRDSSGTQVF | 1.9 µM | 3 of 3 |
| EGDSLRYYVAN | GKNNRPS | SSRMSSGFQVF | 2.0 µM | 1 of 3 |
| EGDSLIYYLAN | GLNNRPS | SSRDSSGFQVF | 2.1 µM | 2 of 3 |
| EGDSLTYYWAN | GKNNRPS | SSRDSAGFQVF | 2.6 µM | 2 of 3 |
| EGDSLRCYTAN | GKNNRPS | SSRDSSGFRVF | 2.7 µM | 3 of 3 |
| EGDSLRMYMAN | GKNWRPS | SSRDSSGFQVF | 2.8 µM | 3 of 3 |
| EGFSLRYYIAN | GKNNRPS | SSRDSSGFQVF | 3.0 µM | 2 of 3 |
| EGDSARYYKAN | GKNNRPS | SSRDSSGFQVF | 3.8 µM | 1 of 3 |
| EGDSLRYYMAN | GKNRRPS | SSRDSSGFQSF | 4.4 µM | 2 of 3 |
| EGDSLRYYCAN | RKNNRPS | SSRSSSGFQVF | 4.9 µM | 1 of 3 |
| EGDSLYYYHAN | GKNNPPS | SSRDSSGFQVF | 5.6 µM | 2 of 3 |
| EGDSLRKYIAN | GKNNRPS | SDRDSSGFQVF | 5.6 µM | 2 of 3 |
| ENDMLRYYHAN | GKNNRPS | SSRDSSGFQVF | 5.7 µM | 2 of 3 |
| EEDSLRYYIAN | GKNNRPS | SSRDSSGFQVD | 5.7 µM | 3 of 3 |
| EGDSLRYYIAN | GKNNRPS | SSRDSSGADVF | 5.7 µM | 2 of 3 |
| EGDSLRYYNAN | GKNNRQS | SSRDSSFFQVF | 8.6 µM | 3 of 3 |
| EGDLLRYYMAN | GKNNRPS | SSRDSSDFQVF | 8.9 µM | 2 of 3 |
| EGDSLRYYKAN | KKNNRPS | SHRDSSGFQVF | 11 µM | 2 of 3 |
| PGDSLRYYIAN | GKNNRPS | SSRDESGFQVF | 17 µM | 2 of 3 |
| EGDSLRYYNAN | GKNNRPS | CSRRSSGFQVF | 17 µM | 1 of 3 |
| EGDSLRYYIWN | GKNNRPS | SSEDSSGFQVF | 19 µM | 2 of 3 |
| EGDSLRIYMAN | GKNNRPQ | SSRDSSGFQVF | 26 µM | 3 of 3 |
| EGDSLRYYFYN | GKNNRPS | SSRDSSGFQVV | 31 µM | 2 of 3 |
| EGDSLRYYQAN | GKNNRPS | SSRDSSWFHVF | 33 µM | 2 of 3 |
| EGDSLRYYCWN | GKNNRPL | SSRDSSGFQVF | 46 µM | 1 of 3 |
| EGDSLRYYGAN | GKNIRPS | SSRDSSGFQVK | 51 µM | 1 of 3 |
| EGDSLRYYIYN | GKNNRPG | SSRDSSGFQVF | 180 µM | 2 of 3 |
| EGDSLRYYLSN | GKHNRPS | SSRDSSGFQVF | no signal | 0 of 3 |
| EGDSLRYYRAN | FKNNRPS | SSRDSSGWQVF | no signal | 0 of 3 |
| EGDSLRYYDAN | GKNNRPS | SSRDSSHFAVF | no signal | 0 of 3 |
| EGDSLRYYEDN | GKNNRPS | QSRDSSGFQVF | no signal | 0 of 3 |

From the list, the first 4 with no signal in any replicate:

| CDR-L1 | CDR-L2 | CDR-L3 | Kd | seen in |
|---|---|---|---|---|
| EGDSLRYYLSN | GKHNRPS | SSRDSSGFQVF | no signal | 0 of 3 |
| EGDSLRYYRAN | FKNNRPS | SSRDSSGWQVF | no signal | 0 of 3 |
| EGDSLRYYDAN | GKNNRPS | SSRDSSHFAVF | no signal | 0 of 3 |
| EGDSLRYYEDN | GKNNRPS | QSRDSSGFQVF | no signal | 0 of 3 |

For reference, the parent read 200 nM as the reference entry and 180 nM as a member of this library. Empty control strains, which show no peptide, gave a signal in 28% of pairings with library AAYL52; the median was 8.2 µM and 95% of these signals were weaker than 800 nM. No background was subtracted.